Source: PubChem BioAssay (NCI)
Some results for these compounds are left out of this collection, so the calls shown say nothing about other tests.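 Dose response: 5 concentrations. Exposure: 48 h. Format: 96-well plates. Endpoint: linear interpolation; highest concentration if not reached. GI50: concentration for 50% inhibition of growth. TGI: total growth inhibition.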

Experiments:
Test in all cases: NCI-60 cell line screen, 48 h
SR leukemia = system: SR leukemia
LOX IMVI melanoma = system: LOX IMVI melanoma
MDA-MB-435 = system: MDA-MB-435
M14 melanoma = system: M14 melanoma
ACHN renal = system: ACHN renal
HS 578T breast = system: HS 578T breast
A549 NSCLC = system: A549 NSCLC
T-47D breast = system: T-47D breast
MDA-N = system: MDA-N
SK-OV-3 ovarian = system: SK-OV-3 ovarian
CAKI-1 renal = system: CAKI-1 renal
SF-295 CNS = system: SF-295 CNS
MCF7 breast = system: MCF7 breast
SK-MEL-5 melanoma = system: SK-MEL-5 melanoma
UACC-62 melanoma = system: UACC-62 melanoma
SK-MEL-2 melanoma = system: SK-MEL-2 melanoma
RPMI-8226 leukemia = system: RPMI-8226 leukemia
RXF 393 renal = system: RXF 393 renal
OVCAR-5 ovarian = system: OVCAR-5 ovarian
K-562 leukemia = system: K-562 leukemia
CCRF-CEM leukemia = system: CCRF-CEM leukemia
PC-3 prostate = system: PC-3 prostate
HL-60(TB) leukemia = system: HL-60(TB) leukemia
EKVX NSCLC = system: EKVX NSCLC
MDA-MB-231 breast = system: MDA-MB-231 breast
SW-620 colon = system: SW-620 colon
BT-549 breast = system: BT-549 breast
A498 renal = system: A498 renal
OVCAR-8 ovarian = system: OVCAR-8 ovarian
UACC-257 melanoma = system: UACC-257 melanoma
NCI-H322M lung = system: NCI-H322M lung
NCI/ADR-RES ovarian = system: NCI/ADR-RES ovarian
HCT-15 colon = system: HCT-15 colon
IGROV1 ovarian = system: IGROV1 ovarian
786-0 renal = system: 786-0 renal
MOLT-4 leukemia = system: MOLT-4 leukemia
NCI-H23 lung = system: NCI-H23 lung
OVCAR-3 ovarian = system: OVCAR-3 ovarian
HOP-62 NSCLC = system: HOP-62 NSCLC
SNB-75 CNS = system: SNB-75 CNS
NCI-H522 lung = system: NCI-H522 lung
MALME-3M melanoma = system: MALME-3M melanoma
HCT-116 colon = system: HCT-116 colon
SN12C renal = system: SN12C renal
COLO 205 colon = system: COLO 205 colon
OVCAR-4 ovarian = system: OVCAR-4 ovarian
U251 CNS = system: U251 CNS
DU-145 prostate = system: DU-145 prostate
SF-539 CNS = system: SF-539 CNS
UO-31 renal = system: UO-31 renal
SK-MEL-28 melanoma = system: SK-MEL-28 melanoma
TK-10 renal = system: TK-10 renal
SF-268 CNS = system: SF-268 CNS
HT29 colon = system: HT29 colon

CCC#CC(O)(C(=O)OC1C2CCN(CC2)C1C)c1ccccc1 (stereo not drawn)
GI50 (SR leukemia): > 100 µM | TGI (SR leukemia): > 100 µM | GI50 (LOX IMVI melanoma): > 100 µM | TGI (LOX IMVI melanoma): > 100 µM | GI50 (MDA-MB-435): > 100 µM | TGI (MDA-MB-435): > 100 µM | GI50 (M14 melanoma): > 100 µM | TGI (M14 melanoma): > 100 µM | GI50 (ACHN renal): > 100 µM | TGI (ACHN renal): > 100 µM | GI50 (HS 578T breast): > 100 µM | TGI (HS 578T breast): > 100 µM | GI50 (A549 NSCLC): > 100 µM | TGI (A549 NSCLC): > 100 µM | GI50 (T-47D breast): > 100 µM | TGI (T-47D breast): > 100 µM | GI50 (MDA-N): > 100 µM | TGI (MDA-N): > 100 µM | GI50 (SK-OV-3 ovarian): > 100 µM | TGI (SK-OV-3 ovarian): > 100 µM | GI50 (CAKI-1 renal): > 100 µM | TGI (CAKI-1 renal): > 100 µM | GI50 (SF-295 CNS): > 100 µM | TGI (SF-295 CNS): > 100 µM | GI50 (MCF7 breast): > 100 µM | TGI (MCF7 breast): > 100 µM | GI50 (SK-MEL-5 melanoma): > 100 µM | TGI (SK-MEL-5 melanoma): > 100 µM | GI50 (UACC-62 melanoma): > 100 µM | TGI (UACC-62 melanoma): > 100 µM | GI50 (SK-MEL-2 melanoma): > 100 µM | TGI (SK-MEL-2 melanoma): > 100 µM | GI50 (RPMI-8226 leukemia): > 100 µM | TGI (RPMI-8226 leukemia): > 100 µM | GI50 (RXF 393 renal): > 100 µM | TGI (RXF 393 renal): > 100 µM | GI50 (OVCAR-5 ovarian): > 100 µM | TGI (OVCAR-5 ovarian): > 100 µM | GI50 (K-562 leukemia): > 100 µM | TGI (K-562 leukemia): > 100 µM | GI50 (CCRF-CEM leukemia): > 100 µM | TGI (CCRF-CEM leukemia): > 100 µM | GI50 (PC-3 prostate): > 100 µM | TGI (PC-3 prostate): > 100 µM | GI50 (HL-60(TB) leukemia): > 100 µM | TGI (HL-60(TB) leukemia): > 100 µM | GI50 (EKVX NSCLC): > 100 µM | TGI (EKVX NSCLC): > 100 µM | GI50 (MDA-MB-231 breast): > 100 µM | TGI (MDA-MB-231 breast): > 100 µM | GI50 (SW-620 colon): > 100 µM | TGI (SW-620 colon): > 100 µM | GI50 (BT-549 breast): > 100 µM | TGI (BT-549 breast): > 100 µM | GI50 (A498 renal): > 100 µM | TGI (A498 renal): > 100 µM | GI50 (OVCAR-8 ovarian): 16.9 µM | TGI (OVCAR-8 ovarian): 32 µM | GI50 (UACC-257 melanoma): > 100 µM | TGI (UACC-257 melanoma): > 100 µM | GI50 (NCI-H322M lung): > 100 µM | TGI (NCI-H322M lung): > 100 µM | GI50 (NCI/ADR-RES ovarian): 62 µM | TGI (NCI/ADR-RES ovarian): > 100 µM | GI50 (HCT-15 colon): > 100 µM | TGI (HCT-15 colon): > 100 µM | GI50 (IGROV1 ovarian): > 100 µM | TGI (IGROV1 ovarian): > 100 µM | GI50 (786-0 renal): 79.8 µM | TGI (786-0 renal): > 100 µM | GI50 (MOLT-4 leukemia): > 100 µM | TGI (MOLT-4 leukemia): > 100 µM | GI50 (NCI-H23 lung): > 100 µM | TGI (NCI-H23 lung): > 100 µM | GI50 (OVCAR-3 ovarian): > 100 µM | TGI (OVCAR-3 ovarian): > 100 µM | GI50 (HOP-62 NSCLC): > 100 µM | TGI (HOP-62 NSCLC): > 100 µM | GI50 (SNB-75 CNS): > 100 µM | TGI (SNB-75 CNS): > 100 µM | GI50 (NCI-H522 lung): > 100 µM | TGI (NCI-H522 lung): > 100 µM | GI50 (MALME-3M melanoma): > 100 µM | TGI (MALME-3M melanoma): > 100 µM | GI50 (HCT-116 colon): > 100 µM | TGI (HCT-116 colon): > 100 µM | GI50 (SN12C renal): > 100 µM | TGI (SN12C renal): > 100 µM | GI50 (COLO 205 colon): > 100 µM | TGI (COLO 205 colon): > 100 µM | GI50 (OVCAR-4 ovarian): > 100 µM | TGI (OVCAR-4 ovarian): > 100 µM | GI50 (U251 CNS): > 100 µM | TGI (U251 CNS): > 100 µM | GI50 (DU-145 prostate): > 100 µM | TGI (DU-145 prostate): > 100 µM | GI50 (SF-539 CNS): > 100 µM | TGI (SF-539 CNS): > 100 µM | GI50 (UO-31 renal): > 100 µM | TGI (UO-31 renal): > 100 µM | GI50 (SK-MEL-28 melanoma): > 100 µM | TGI (SK-MEL-28 melanoma): > 100 µM | GI50 (TK-10 renal): > 100 µM | TGI (TK-10 renal): > 100 µM | GI50 (SF-268 CNS): > 100 µM | TGI (SF-268 CNS): > 100 µM | GI50 (HT29 colon): > 100 µM | TGI (HT29 colon): > 100 µM
